Read-outs that look alike come from different tables or passages of the source.
Experiments:
MDSC cultures = test: IL-2-induced T-lymphocyte differentiation of MDSC cultures; type: cell-based, human; conditions: 1200 units/ml IL-2, 4 days
Experimental: (§1) To determine whether the MDSCs could also be induced to mature along another blood lineage, the ability of IL-2 to induce T-lymphocyte differentiation was tested. Treatment of four MDSC cultures with 1200 units/ml IL-2 for 4 days induced the cells to acquire a round morphology. […] Press, New York 1995). The IL-2-induced cells also acquired an increased ability to kill target cells, a functional marker for cytotoxic/suppressor T-lymphocytes. Using a 5:1 effector to target cell ratio, the IL-2-induced lymphocytes lysed 35±7% of the target cells compared to 12±3% by control cells.

target cells = test: Killing of target cells by IL-2-induced lymphocytes; type: cell-based, human; conditions: 5:1 effector to target cell ratio
Experimental: as §1

[1] = tested on: MDSC colonies Clone 1 and Clone 2; conditions: 1200 units/ml IL-2, seven days
Experimental: To determine whether progeny of colonies derived from single MDSCs can be induced to differentiate into distinct cell lineages, cells from a five-day, 50 ng/ml, M-CSF-treated culture enriched to contain 99.97% peripheral blood monocytes were inoculated into 12 U-bottom tissue culture plates, 96 wells each, at 0.8 cells/well in 0.1-0.2 ml growth medium. The cells were then incubated in the presence of 50 ng/ml M-CSF and 1,000 units/ml LIF for 15-20 days. Additionally, one plate was incubated with 25% conditioned medium from a five-day, 50 ng/ml, M-CSF treated culture. […] The few wells that contained more than one cell were excluded from further experimentation. Medium was replaced every 5-7 days.
At 45-52 days, these cells were dispersed by forceful pipetting, without lidocaine, into flat-bottom, 96-well, tissue culture plates. […] Two colonies of MDSCs, each of which had arisen from a single cell, were chosen for further differentiation experiments and were termed Clone 1 and Clone 2. […] These antibodies separately recognized cell-surface markers that included the T lymphocyte marker CD3, the epithelial marker keratin, the endothelial marker vWF, the neuronal marker MAP1-B, and the hepatocyte marker AFP.

Substance: IL-2: human recombinant interleukin-2, T-cell inducing agent
- CD3-positive cells also displaying CD8 (MDSC cultures): Roughly 75%
- cells exhibiting CD4 (MDSC cultures): Less than 3%
- treated cells expressing CD3 (MDSC cultures): about 90%
- target cells lysed (target cells): 35±7%
- Immunostained cells (%), CD3 (Lymphocyte) ([1]; Clone 1): 75%
- Immunostained cells (%), CD3 (Lymphocyte) ([1]; Clone 2): 81%
